Measurements published in paper PMC9082844 (Journal of Biomedical Science, 2022).

Protein sequences, listed by entry. Tags and fused reporters are not part of them.
UniProt O75164, whole entry: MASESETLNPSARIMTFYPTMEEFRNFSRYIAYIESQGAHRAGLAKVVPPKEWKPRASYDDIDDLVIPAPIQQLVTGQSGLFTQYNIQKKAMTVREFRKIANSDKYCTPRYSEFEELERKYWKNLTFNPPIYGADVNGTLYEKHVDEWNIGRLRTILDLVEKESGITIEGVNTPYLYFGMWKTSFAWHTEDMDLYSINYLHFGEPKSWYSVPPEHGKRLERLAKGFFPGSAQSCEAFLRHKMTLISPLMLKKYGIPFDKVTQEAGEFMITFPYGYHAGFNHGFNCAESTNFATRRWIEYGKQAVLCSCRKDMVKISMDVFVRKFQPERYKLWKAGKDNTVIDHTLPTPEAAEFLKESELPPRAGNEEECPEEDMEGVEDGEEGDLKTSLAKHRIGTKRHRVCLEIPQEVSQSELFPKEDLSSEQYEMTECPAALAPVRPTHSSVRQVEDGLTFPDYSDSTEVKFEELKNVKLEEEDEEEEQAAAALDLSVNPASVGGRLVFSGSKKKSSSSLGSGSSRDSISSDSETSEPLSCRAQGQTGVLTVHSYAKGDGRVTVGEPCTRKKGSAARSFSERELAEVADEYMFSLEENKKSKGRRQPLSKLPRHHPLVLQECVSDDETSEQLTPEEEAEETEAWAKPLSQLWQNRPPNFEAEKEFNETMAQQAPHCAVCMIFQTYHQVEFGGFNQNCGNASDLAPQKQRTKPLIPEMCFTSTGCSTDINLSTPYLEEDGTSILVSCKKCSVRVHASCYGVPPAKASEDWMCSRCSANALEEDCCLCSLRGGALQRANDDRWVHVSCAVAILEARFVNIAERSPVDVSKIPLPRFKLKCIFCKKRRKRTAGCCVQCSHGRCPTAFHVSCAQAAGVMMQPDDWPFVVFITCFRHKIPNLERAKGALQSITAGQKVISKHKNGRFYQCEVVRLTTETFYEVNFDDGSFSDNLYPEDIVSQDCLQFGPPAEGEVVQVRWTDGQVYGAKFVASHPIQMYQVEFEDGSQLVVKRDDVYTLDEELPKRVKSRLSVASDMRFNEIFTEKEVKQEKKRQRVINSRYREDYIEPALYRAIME

target: KDM4A (Homo sapiens, UniProt O75164); experiment: FDH-coupled demethylase assay, KDM4A; format: biochemical; details: Table S2; means of three independent dose-response curves

IC50 [nM]	SMILES
5780	O=C(c1cccc(O)c1O)N1CCN(c2ccc(Cl)cc2)CC1
> 10000	O=C(O)c1cc(C(=O)N2CCN(c3cccc(Cl)c3)CC2)ccc1O
8710	O=C(c1cccc(O)c1O)N1CCN(c2cccc(C(F)(F)F)c2)CC1
2210	O=C(c1cc(O)c(O)c(O)c1)N1CCN(c2cccc(Cl)c2)CC1
4480	O=C(c1cccc(O)c1O)N1CCN(c2cccc(Cl)c2)CC1
> 10000	COc1cccc(C(=O)N2CCN(c3ccc(Cl)cc3)CC2)c1O
5600	O=C(c1ccc(O)c(O)c1)N1CCN(c2cccc(Cl)c2)CC1
6700	Cc1cccc(N2CCN(C(=O)c3cccc(O)c3O)CC2)c1C
5030	O=C(c1ccc(O)c(O)c1O)N1CCN(c2cccc(Cl)c2)CC1
4270	O=C(c1cccc(O)c1O)N1CCN(c2ccccc2)CC1
4330	O=C(c1cccc(O)c1O)N1CCN(c2ccc(Cl)c(Cl)c2)CC1

same assay, conditions: Table S3; means of three independent dose-response curves

IC50 [nM]	SMILES
1900	O=C(N/N=C/c1cccc(O)c1O)c1cccs1
1120	O=C(N/N=C/c1ccc(O)c(O)c1O)c1ccccn1
1490	O=C(N/N=C/c1cccc(O)c1O)c1ccccn1
1270	O=C(N/N=C/c1ccc(O)c(O)c1)c1ccncc1
2160	O=C(N/N=C/c1ccc(O)c(O)c1O)c1ccncc1
1260	O=C(N/N=C/c1ccc(O)c(O)c1O)c1ccccc1
860	O=C(N/N=C/c1cccc(O)c1O)c1ccncc1

same assay, conditions: Table S4; means of three independent dose-response curves

SMILES	IC50 [nM]
O=C/C=C/c1ccc(O)c(O)c1	920
O=Cc1cccc(O)c1O	2790
